Our source for the IC50 values is patent publication US20110172126A1, “LIBRARIES OF PEPTIDE CONJUGATES AND METHODS FOR MAKING THEM” (XENOME LTD, priority 2008, published 2011).

Amino acid sequences for entries named in this document (tags omitted).
UniProt P23975, whole entry: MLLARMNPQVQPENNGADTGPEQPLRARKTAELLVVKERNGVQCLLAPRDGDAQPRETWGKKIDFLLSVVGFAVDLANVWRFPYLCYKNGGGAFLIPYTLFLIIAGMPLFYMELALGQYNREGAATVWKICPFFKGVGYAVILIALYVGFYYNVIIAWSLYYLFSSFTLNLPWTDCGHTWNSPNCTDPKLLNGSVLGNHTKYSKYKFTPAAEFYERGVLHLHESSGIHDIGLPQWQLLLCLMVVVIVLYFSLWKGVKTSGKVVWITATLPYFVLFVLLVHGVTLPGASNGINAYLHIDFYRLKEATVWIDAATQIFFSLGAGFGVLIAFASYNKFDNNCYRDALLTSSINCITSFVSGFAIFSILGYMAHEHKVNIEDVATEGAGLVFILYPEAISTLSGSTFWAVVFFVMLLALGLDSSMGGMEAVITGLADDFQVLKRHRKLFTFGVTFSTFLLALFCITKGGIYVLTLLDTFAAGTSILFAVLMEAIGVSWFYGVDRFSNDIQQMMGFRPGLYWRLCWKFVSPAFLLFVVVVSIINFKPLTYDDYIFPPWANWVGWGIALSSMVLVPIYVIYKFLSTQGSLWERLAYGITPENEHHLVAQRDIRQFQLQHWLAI

The target in the assay is T1, human norepinephrine transporter (hNET) (Homo sapiens, UniProt P23975).
T1 construct: purchased Perkin Elmer Life Sciences RBHNETM400UA
In words: biochemical. The class given is binding.

Consider `CC(C)C[C@@H]1NC(=O)[C@@H]2C[C@@H](CN2C(=O)CCCN)NC(=O)[C@H](Cc2ccc(O)cc2)NC(=O)[C@@H](N)CSSC[C@@H](C(N)=O)NC1=O` [compound 2], for which 23 µM corresponded to half-maximal inhibition (IC50).
Under `CC(C)C[C@@H]1NC(=O)[C@@H]2C[C@H](NC(=O)CCCN)CN2C(=O)[C@H](Cc2ccc(O)cc2)NC(=O)[C@@H](N)CSSC[C@@H](C(N)=O)NC1=O` [compound 3] stands 21 µM.

As a reminder, the IC50 is the concentration at which inhibition is half-maximal. The low end stands for greater potency in that assay, the high end for weaker potency in that assay.
